This passage reports Ki and EC50 results from ChEMBL document CHEMBL5620418.

Each structure is given as a SMILES string.

Assay [1] addresses T1, Delta-type opioid receptor (Homo sapiens, UniProt P41143). Put plainly: Displacement of [3H]DPDPE from human cloned delta-opioid receptor expressed in CHO cell membrane by liquid scintillation counting. For orientation: Displacement assays read how much labelled ligand stays bound in the presence of the test substance.
Assay [2] addresses T2, Mu-type opioid receptor (Homo sapiens, UniProt P35372). Nature of the assay: Displacement of [3H]DAMGO from human cloned mu-opioid receptor expressed in CHO cell membrane by liquid scintillation counting.
Assay [3] concerns the target T3, Kappa-type opioid receptor (Homo sapiens, UniProt P41145). Nature of the assay: Displacement of [3H]U69593 from human cloned kappa-opioid receptor expressed in CHO cell membrane by liquid scintillation counting.
In assay [4] the target is T1, Delta-type opioid receptor. Put plainly: Binding affinity to delta-opioid receptor (unknown origin).
Assay [5] concerns the target T3, Kappa-type opioid receptor. Nature of the assay: Binding affinity to kappa-opioid receptor (unknown origin).
For assay [6], the target named is T3, Kappa-type opioid receptor. Put plainly: Agonist activity at human kappa opioid receptor expressed in CHO cell membrane assessed as stimulation of [35S]GTPgammaS binding incubated for 1 hr by liquid scintillation counting analysis.
Assay [7] deals with T1, Delta-type opioid receptor. Nature of the assay: Agonist activity at human delta opioid receptor expressed in CHO cell membrane assessed as stimulation of [35S]GTPgammaS binding incubated for 1 hr by liquid scintillation counting analysis. On the technique in general: GTPγS is a poorly hydrolysed GTP analogue; its binding reports G protein activation.
In assay [8] the target is T2, Mu-type opioid receptor. Put plainly: Binding affinity to mu-opioid receptor (unknown origin).
The target of assay [9] is T2, Mu-type opioid receptor. Put plainly: Agonist activity at human mu opioid receptor expressed in CHO cell membrane assessed as stimulation of [35S]GTPgammaS binding incubated for 1 hr by liquid scintillation counting analysis.

As for `COc1cccc(C(=O)Nc2ccc(C(=O)[C@H]3C[C@@]45C=C[C@]3(OC)[C@@H]3Oc6c(OC)ccc7c6[C@@]34CCN(CC3CC3)[C@@H]5C7)cc2)c1`, the Ki in assay [1] came to 1270 nM; on Mu-type opioid receptor [2], 586 nM.
Regarding `COc1ccc2c3c1O[C@H]1[C@@]4(OC)C=C[C@@]5(C[C@@H]4C(=O)c4ccc(NCc6ccccc6)cc4)[C@@H](C2)N(CC2CC2)CC[C@]315`, the figures for the Ki (in assay [1]; in assay [3]; on Mu-type opioid receptor [2]) were > 5000 nM, 104 nM and 340 nM, respectively.
Turning to `CCCC(CCC)C(=O)Nc1ccc(C(=O)[C@H]2C[C@@]34C=C[C@]2(OC)[C@@H]2Oc5c(OC)ccc6c5[C@@]23CCN(CC2CC2)[C@@H]4C6)cc1`, the Ki in [1] stood at 723 nM; on Mu-type opioid receptor [2], 234 nM.
The like results for `COc1ccc2c3c1O[C@H]1[C@@]4(OC)C=C[C@@]5(C[C@@H]4C(=O)c4ccc(NC(=O)c6cccnc6)cc4)[C@@H](C2)N(CC2CC2)CC[C@]315` were, in that order, 2030 nM and 186 nM.
In the case of `COc1ccc2c3c1O[C@H]1[C@@]4(OC)C=C[C@@]5(C[C@@H]4C(=O)c4ccc(NC(=O)c6ccc(C(F)(F)F)cc6)cc4)[C@@H](C2)N(CC2CC2)CC[C@]315`, the Ki is > 10000 nM in assay [1], 2550 nM in assay [3] and 1120 nM at Mu-type opioid receptor [2].
For `COc1ccc2c3c1O[C@H]1[C@@]4(OC)C=C[C@@]5(C[C@@H]4C(=O)c4ccc(NC(=O)C(C)(C)C)cc4)[C@@H](C2)N(CC2CC2)CC[C@]315` the same measures were 319 nM, 1590 nM and 35.2 nM.
With `COc1ccc2c3c1O[C@H]1[C@@]4(OC)C=C[C@@]5(C[C@@H]4C(=O)c4ccc(NC(=O)OCc6ccccc6)cc4)[C@@H](C2)N(CC2CC2)CC[C@]315`, the Ki is > 10000 nM in assay [1], 322 nM in [3] and 672 nM on Mu-type opioid receptor [2].
For `COc1ccc2c3c1O[C@H]1[C@@]4(OC)C=C[C@@]5(C[C@@H]4C(=O)c4ccc(NC(=O)Cc6ccccc6)cc4)[C@@H](C2)N(CC2CC2)CC[C@]315` the same measures were 923 nM, 503 nM and 163 nM.
Consider `COc1ccc2c3c1O[C@H]1[C@@]4(OC)C=C[C@@]5(C[C@@H]4C(=O)c4ccc(NC(=O)c6ccsc6)cc4)[C@@H](C2)N(CC2CC2)CC[C@]315`, for which the Ki in [1] came out at 2900 nM; on Mu-type opioid receptor [2], 57.3 nM.
Regarding `COc1ccc2c3c1O[C@H]1[C@@]4(OC)C=C[C@@]5(C[C@@H]4C(=O)c4ccc(NC(C)=O)cc4)[C@@H](C2)N(CC2CC2)CC[C@]315`, the Ki in assay [1] came out at 1040 nM; in assay [3], 2920 nM; at Mu-type opioid receptor [2], 66.9 nM.
The like results for `COc1ccc2c3c1O[C@H]1[C@@]4(OC)C=C[C@@]5(C[C@@H]4C(=O)c4ccc(NC(=O)c6cnn(C)c6)cc4)[C@@H](C2)N(CC2CC2)CC[C@]315` were, in that order, 552 nM, 2430 nM and 518 nM.
On to `COc1ccc2c3c1O[C@@H]1[C@]34CCN(CC3CC3)[C@H](C2)[C@]42C=C[C@@]1(OC)C(C(=O)c1ccccc1)C2` (stereo not given in full), for which the Ki in assay [4] was 774 nM; in assay [5], 0.4 nM; at Mu-type opioid receptor [8], 130 nM. Also, the EC50 in [6] was 1 nM; in assay [7], 678 nM; at Mu-type opioid receptor [9] it was 130 nM.
`COc1ccc2c3c1O[C@H]1[C@@]4(OC)C=C[C@@]5(C[C@@H]4C(=O)c4ccc(NC(=O)c6ccncc6)cc4)[C@@H](C2)N(CC2CC2)CC[C@]315`: the Ki was 615 nM in assay [1] and 40.6 nM on Mu-type opioid receptor [2].
For the compound `COc1ccc2c3c1O[C@H]1[C@@]4(OC)C=C[C@@]5(C[C@@H]4C(=O)c4ccc(NC(=O)C6CC6)cc4)[C@@H](C2)N(CC2CC2)CC[C@]315`, the Ki in [1] stood at 1030 nM; in [3], 1210 nM; on Mu-type opioid receptor [2], 65.2 nM.

Broadly, the Ki is a dissociation constant, usually derived from enzyme kinetics or from competition with a known ligand. Broadly, the EC50 is the concentration needed to bring the measured effect to its halfway point.
